Measurements reported in publication PMC3288355 (Current Biology, 2012).

Legend:
pyrene actin [1] = molecular target: T1, pyrene actin (UniProt P68135 1-377, pyrene label); assay: other fluorescence titration
pyrene actin [2] = molecular target: T1, pyrene actin; assay: stopped-flow fluorescence

Kd (pyrene actin [1]): 1200 ± 200 nM
koff (pyrene actin [2]): 54.8 ± 6.4 s⁻¹
kon (pyrene actin [2]): 4.66e+07 ± 2e+06 M⁻¹ s⁻¹
B1: GST-THDII (MYO3A tail homology domain II fused to GST) (domain or fragment)
chain: EEREPAANPYDFRRLLRKTSQRRRLVQQS
